Values quoted from earlier work, collected in US6960597B2, “Aza-bridged-bicyclic amino acid derivatives as α4 integrin antagonists” (Orth-McNeil Pharmaceutical, Inc., priority 2000, dated 2005).

Tests used:
[1] = system: airway responses following antigen challenge; conditions: allergic sheep; pre-treatment, 3 mg nebulized dose; cited from earlier work
[2] = system: eosinophilia and airway hyperresponsiveness; conditions: animal models of asthma; cited from earlier work

For `Cc1ccccc1NC(=O)Nc1ccc(CC(=O)N[C@@H](CC(C)C)C(=O)N[C@@H](CC(=O)O)C(=O)N[C@H](C(=O)N2CCC[C@H]2C(=O)O)C(C)C)cc1`, the “development of nonspecific airway hyperresponsiveness to carbachol” value [1] is listed as “prevented”, the “early and late airway responses following antigen challenge” value [1] is listed as “inhibited” and the “eosinophilia and airway hyperresponsiveness” value [2] is listed as “inhibits”.
